Values quoted from earlier work as cited in paper PMC3364022.

Sequences of proteins named here, by UniProt entry; tags and fusion partners are left off. A change or cut given only in a name is not applied to a line headed by its entry.
UniProt Q07820, whole entry: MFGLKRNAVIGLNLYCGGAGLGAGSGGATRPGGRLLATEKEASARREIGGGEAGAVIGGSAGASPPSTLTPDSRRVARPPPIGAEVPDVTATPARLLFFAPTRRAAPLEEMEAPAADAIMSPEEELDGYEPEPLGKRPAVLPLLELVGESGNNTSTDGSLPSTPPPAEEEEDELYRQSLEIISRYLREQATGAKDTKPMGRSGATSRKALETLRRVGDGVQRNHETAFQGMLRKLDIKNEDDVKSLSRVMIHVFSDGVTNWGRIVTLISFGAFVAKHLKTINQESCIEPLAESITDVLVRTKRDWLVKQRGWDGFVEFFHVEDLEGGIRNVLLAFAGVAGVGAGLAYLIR
UniProt O43521: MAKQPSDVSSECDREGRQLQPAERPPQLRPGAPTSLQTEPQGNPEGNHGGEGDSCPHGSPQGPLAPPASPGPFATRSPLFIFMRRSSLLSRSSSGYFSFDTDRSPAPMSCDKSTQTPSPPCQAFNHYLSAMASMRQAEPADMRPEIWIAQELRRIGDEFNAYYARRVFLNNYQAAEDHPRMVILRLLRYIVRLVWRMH

Target: Mcl-1 (Homo sapiens) (UniProt Q07820)
Test: FP

Flu-Bim tracer BH3 (from UniProt O43521)
Kd: 1.4 nM
